Experimental data as given in patent US11980774B2, “Illumination devices and related methods for phototherapeutic light treatments in the presence of vitamins” (priority 2021, dated 2024).

Tested on: influenza B
Conditions: 1 μM and 10 μM riboflavin; 425 nm light 15 J/cm^2 and 30 J/cm^2; FIG. 6F

Cc1cc2nc3c(=O)[nH]c(=O)nc-3n(C[C@H](O)[C@H](O)[C@H](O)CO)c2cc1C [riboflavin]
reductions in viral load of influenza B: notable reductions
